# Measured affinities in a library of Ab-14 heavy chain variants

Source: Li et al. 2023 (doi:10.1038/s41467-023-39022-2), MIT Lincoln Laboratory and A-Alpha Bio; data file from the FLAb repository.

Target: peptide PDVDLGDISGINAS, taken from heptad repeat 2 (HR2) of SARS-CoV-2 spike.

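Phage display of a naive human antibody library on the peptide gave the parent. Designed CDR sequences, proposed from the first random library and measured here. Group labels follow the data file (Ctrl: baseline library sampled from a position-specific scoring matrix, with some repeated check sequences; Rand: our label for a block that the file lists under HC and that is probably the random mutants of the ten best first-round binders; En: ensemble of fine-tuned language models; GP: Gaussian process model; GPLM: also part of the Gaussian process libraries; HC: hill climbing; Gen: genetic algorithm; Gibbs: Gibbs sampling; a sequence that several methods proposed may carry one label only). The scFvs were displayed on barcoded MATa yeast, the peptide on MATalpha yeast. Pairs that bind mate more often; barcode pairs of the diploids are counted by sequencing. Read counts were normalised to the haploid input and turned into Kd by a linear fit to BCL2-family pairs of known affinity, for each replicate. The assay was run in six technical replicates.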

Parent: Ab-14, a human scFv built as VH, the linker GGGGSGGGGSGGGGS, VL. Only the CDRs of the heavy chain vary.
VH: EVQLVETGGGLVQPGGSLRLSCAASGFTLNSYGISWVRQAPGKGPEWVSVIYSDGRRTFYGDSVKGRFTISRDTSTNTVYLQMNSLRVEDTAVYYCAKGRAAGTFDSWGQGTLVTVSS
VL: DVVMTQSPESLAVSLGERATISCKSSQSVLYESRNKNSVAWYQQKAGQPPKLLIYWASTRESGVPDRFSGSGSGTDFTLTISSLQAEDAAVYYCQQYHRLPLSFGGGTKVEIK

Each variant is given by its three heavy chain CDRs, as the data file delimits them; those of the parent are GFTLNSYGIS, VIYSDGRRTFYGDSVK, GRAAGTFDS.
Variants here have at most six changes.
Values are apparent Kd, the geometric mean of the replicates that gave a signal; lower means stronger binding.
"nd" marks a missing value. The strain was present, yet no cells mated with the target were sequenced in any replicate, which points to weak or no binding.

- GFHLNSYGIS, VIYSDGRRSFYADSVK, GRTAGTFDS [GPLM_Gen]: 64 nM (6 of 6 replicates; controls 0 of 18)
- GFKLNSYGIS, VIYSDGRRTFYADSVK, GQLAGTFDS [GP_HC]: 480 pM (6 of 6 replicates; controls 0 of 18)
- GFGLNEYGIS, VIYSDGRRTFYHDSVK, GKAAGTFDS [GP_Gen]: 850 pM (6 of 6 replicates; controls 1 of 18)
- GFTLDSYGIS, VIYSDGRRTFYSDSVK, GRAGGTFDS [GPLM_HC]: 11 nM (6 of 6 replicates; controls 3 of 18)
- GFWLNEYGIS, VIYSDGMRTFYIDSVK, GRAAGTFDS [GP_Gibbs]: nd (0 of 6 replicates; controls 0 of 18)
- GNTLNSYGIS, VIYSDGERTAYGDSVK, GMAAGTFDL [Ctrl]: 150 nM (3 of 6 replicates; controls 0 of 18)
- GFNLNSYGIS, VIYSDGRRTFYGDSVK, GRAAGKFDQ [Ctrl]: nd (0 of 6 replicates; controls 0 of 18)
- GDTLNSYGIS, VIYSDGRRTFYADSVK, GRNAGRFDS [Ctrl]: nd (0 of 6 replicates; controls 0 of 18)
- GFTINSYGIS, VIYSDGRRTFYGDSVK, DRAAGTFWS [Ctrl]: nd (0 of 6 replicates; controls 0 of 18)
- GFTLNEYGIS, VIYSDGRRTFYGDSVK, GHAAGTFDM [GP_HC]: 5.3 nM (6 of 6 replicates; controls 0 of 18)
- GETVNSYGIS, VIYSDGRRTFYGDSVK, GRQAGTFDS [Ctrl]: nd (0 of 6 replicates; controls 0 of 18)
- GFSLNSYGIS, VIYSDGRRTEYGDSVK, GRTAGTFDS [GPLM_Gen]: 1.8 nM (6 of 6 replicates; controls 0 of 18)
- GFTLNSYGIS, VIYADGRRTFYGDSVK, GKVAGTFDS [GPLM_Gen]: 1.5 nM (6 of 6 replicates; controls 0 of 18)
- GFSLNSYGIS, VIYSDGRRTFYQDNVK, GRTAGTFDS [GP_Gen]: 2.9 nM (6 of 6 replicates; controls 0 of 18)
- GFDLNSYGIS, VIYSDGRRTFYSDSVK, GRAAVTFDS [GP_HC]: nd (0 of 6 replicates; controls 1 of 18)
- GFSLNEYGIS, VIYSDGRRTFYDDKVK, GKAAGTFDS [GP_Gibbs]: 2.3 nM (6 of 6 replicates; controls 1 of 18)
- GFTLKSYGIS, VIYADGRRTFYGDSVK, GRAAGTNDS [GP_HC]: nd (0 of 6 replicates; controls 1 of 18)
- GFELNSYGIS, VIYSDGRRTFYTDSVK, GKNAGTFDS [GP_Gibbs]: 6.2 nM (3 of 6 replicates; controls 0 of 18)
- GFTLNSYGIS, VIYSDGRRTFYGDSVK, GREAGTFDK [GPLM_Gen]: 20 nM (6 of 6 replicates; controls 0 of 18)
- GFTLNQYGWS, VQYSDGDRTFYVDSVK, GRAAGFFDS [Rand]: nd (0 of 6 replicates; controls 0 of 18)
- GFTLNSYGIS, VIYADGRRTFYGDQVK, GRAAGTFTS [GP_HC]: nd (0 of 6 replicates; controls 0 of 18)
- GFTLNDYGIS, VIYSDGRRTFYGDSVK, GWTAGTFWS [GP_HC]: nd (0 of 6 replicates; controls 0 of 18)
- GFSLNQYGIS, VIYSDGKRTFYGDSVK, GRTAGTFDS [GP_Gen]: 1.6 nM (6 of 6 replicates; controls 1 of 18)
- GFDLNSYGIS, VIYSDGRRTFYGDQVK, GKTAGTFDA [GP_Gibbs]: 970 pM (6 of 6 replicates; controls 0 of 18)
- GFSLNSYGIS, VIYSDGRRTFYGDSVK, GRVAGTFDN [GPLM_Gen]: 5.3 nM (6 of 6 replicates; controls 0 of 18)
- GFTLNEYGIS, VIYSDGRRTFYSDSVK, GPAAGTFDS [GP_HC]: nd (0 of 6 replicates; controls 1 of 18)
- GFTLNTYGIS, VIYSDGRRTFYGDSVK, GRAAGTFPS [Ctrl]: nd (0 of 6 replicates; controls 0 of 18)
- GFDLNSYGIS, VIYSDGTRTFYGDSVK, GRTAGTFDS [GPLM_Gen]: 2.6 nM (6 of 6 replicates; controls 0 of 18)
- GFTLESYGIS, VIYSDGRRTFYGDDVK, GRAAGTFTS [GP_HC]: 1.4 µM (2 of 6 replicates; controls 1 of 18)
- GFTLNSYGSS, VIYSDGRRTSYNDSYK, GRRAGTFDS [Ctrl]: nd (0 of 6 replicates; controls 0 of 18)
- GFSLNSYGIS, VIYADGRRTFYGDSVK, GRQAGTFDS [GPLM_Gen]: 1.5 nM (6 of 6 replicates; controls 1 of 18)
- GFDLNSYGIS, VIYSDGRRTFYGDGVK, GREAGTFDS [GP_Gen]: 1.0 nM (6 of 6 replicates; controls 0 of 18)
- GFTLNEYGIS, VIYSDGRRTFYGDSVK, GRAAGTFCI [GP_HC]: 1.7 nM (2 of 6 replicates; controls 0 of 18)
- GFTLDSYGIS, VIYSDGRRTFYGDQVK, GRTAGTFDK [GP_Gibbs]: nd (0 of 6 replicates; controls 0 of 18)
- GFTFNDYGIS, VIYSDGRRTQYIDSVK, GRAAGTFDS [Rand]: 420 nM (5 of 6 replicates; controls 0 of 18)
- GFDLNEYGIS, VIYADGRRTFYVDSVK, GTNAGTFDS [En_HC]: 190 pM (6 of 6 replicates; controls 1 of 18)
- PFDLNSYGIS, VIYSDGRRTFYADSVK, GQTAGTFDS [GP_Gibbs]: 1.7 nM (5 of 6 replicates; controls 0 of 18)
- GFELNSYGIS, VIYSDGRRTFYGDSVK, GNAAGTFDS [GPLM_Gen]: 9.0 nM (6 of 6 replicates; controls 0 of 18)
- GFSLNSYGIS, VIYSDGRRTFYADSVK, GHLAGTFDS [GPLM_Gen]: 3.8 nM (6 of 6 replicates; controls 0 of 18)
- GFELNSYGIS, VIYSDGLRTFYGDSVK, VRAIGKFDS [Ctrl]: nd (0 of 6 replicates; controls 0 of 18)
- GFTLDSYGIS, VIYSDGRRTFYTDSFK, GRAAGTFDS [Ctrl]: nd (0 of 6 replicates; controls 0 of 18)
- GFNLNSYGIS, VIYSDGRRTFYGDDVK, GRTAGTFDS [GP_Gen]: 3.8 nM (6 of 6 replicates; controls 0 of 18)
- GFELNSYGIS, VIYSDGRRTFYGDSVK, GQLAGTFDS [GP_Gibbs]: 7.4 nM (3 of 6 replicates; controls 0 of 18)

As a blank, each scFv also met three strains without target: over all heavy chain designs, 1% of these pairings were detected, typically at 120 nM and seldom below 7.0 nM. For each scFv, signals with the empty controls are counted beside the result.
In the paper, a design with two or fewer of six values counts as a poor binder.
Of ten entries with the parent sequence, four were seen in most replicates (averages 2.2 nM to 240 nM), three in one and three in none, so single entries are noisy.
Values of this round are not directly comparable with the first-round values of the same sequences.